Paper PMC12155096 (International Journal of Molecular Sciences, 2025)
Like-named read-outs stand apart in the source and are kept apart here. This is a selection: effects in other tests are not listed, and their absence says nothing.

By UniProt entry, the sequences of proteins in these tests, tags left out.
UniProt P33261, whole entry: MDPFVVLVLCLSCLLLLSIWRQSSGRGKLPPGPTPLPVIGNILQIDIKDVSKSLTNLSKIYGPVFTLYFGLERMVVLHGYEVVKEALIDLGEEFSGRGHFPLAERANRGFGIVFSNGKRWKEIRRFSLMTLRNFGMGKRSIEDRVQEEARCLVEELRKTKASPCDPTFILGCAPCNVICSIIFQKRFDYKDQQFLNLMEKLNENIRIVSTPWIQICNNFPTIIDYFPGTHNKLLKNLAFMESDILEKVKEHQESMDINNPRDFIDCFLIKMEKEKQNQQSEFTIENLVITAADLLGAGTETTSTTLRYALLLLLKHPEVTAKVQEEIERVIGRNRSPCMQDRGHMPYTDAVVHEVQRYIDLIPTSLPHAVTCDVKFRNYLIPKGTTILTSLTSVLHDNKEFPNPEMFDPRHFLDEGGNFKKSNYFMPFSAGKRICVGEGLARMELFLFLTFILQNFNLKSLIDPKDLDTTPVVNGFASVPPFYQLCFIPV
UniProt P05177, whole entry: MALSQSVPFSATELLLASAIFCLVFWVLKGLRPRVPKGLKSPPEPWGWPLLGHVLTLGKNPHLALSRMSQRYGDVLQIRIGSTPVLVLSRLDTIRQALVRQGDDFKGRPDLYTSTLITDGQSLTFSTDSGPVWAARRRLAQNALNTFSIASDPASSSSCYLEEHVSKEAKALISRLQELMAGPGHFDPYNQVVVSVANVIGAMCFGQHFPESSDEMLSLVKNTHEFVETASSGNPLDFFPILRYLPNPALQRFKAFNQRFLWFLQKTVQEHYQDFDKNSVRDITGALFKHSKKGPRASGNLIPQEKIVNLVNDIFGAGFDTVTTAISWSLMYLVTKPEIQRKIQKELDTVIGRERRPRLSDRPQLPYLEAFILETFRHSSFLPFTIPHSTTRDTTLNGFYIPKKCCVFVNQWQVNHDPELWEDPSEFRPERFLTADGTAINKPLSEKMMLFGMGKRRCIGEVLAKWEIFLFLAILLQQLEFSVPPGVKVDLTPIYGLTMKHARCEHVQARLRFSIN
UniProt P08659, whole entry: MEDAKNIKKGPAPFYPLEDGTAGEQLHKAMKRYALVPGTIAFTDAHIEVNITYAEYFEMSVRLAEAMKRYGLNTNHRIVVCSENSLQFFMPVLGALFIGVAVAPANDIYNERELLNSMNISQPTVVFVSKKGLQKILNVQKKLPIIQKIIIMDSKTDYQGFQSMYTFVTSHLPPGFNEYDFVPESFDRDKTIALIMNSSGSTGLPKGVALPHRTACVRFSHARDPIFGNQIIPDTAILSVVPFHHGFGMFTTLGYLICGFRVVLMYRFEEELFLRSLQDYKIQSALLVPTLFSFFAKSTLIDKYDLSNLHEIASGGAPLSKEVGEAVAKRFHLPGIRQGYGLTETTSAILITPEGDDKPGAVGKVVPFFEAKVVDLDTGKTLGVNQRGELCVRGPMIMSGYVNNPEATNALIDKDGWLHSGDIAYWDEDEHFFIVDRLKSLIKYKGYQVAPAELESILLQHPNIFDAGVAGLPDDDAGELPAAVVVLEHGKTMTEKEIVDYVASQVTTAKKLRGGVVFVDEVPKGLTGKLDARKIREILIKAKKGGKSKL
UniProt P11712, whole entry: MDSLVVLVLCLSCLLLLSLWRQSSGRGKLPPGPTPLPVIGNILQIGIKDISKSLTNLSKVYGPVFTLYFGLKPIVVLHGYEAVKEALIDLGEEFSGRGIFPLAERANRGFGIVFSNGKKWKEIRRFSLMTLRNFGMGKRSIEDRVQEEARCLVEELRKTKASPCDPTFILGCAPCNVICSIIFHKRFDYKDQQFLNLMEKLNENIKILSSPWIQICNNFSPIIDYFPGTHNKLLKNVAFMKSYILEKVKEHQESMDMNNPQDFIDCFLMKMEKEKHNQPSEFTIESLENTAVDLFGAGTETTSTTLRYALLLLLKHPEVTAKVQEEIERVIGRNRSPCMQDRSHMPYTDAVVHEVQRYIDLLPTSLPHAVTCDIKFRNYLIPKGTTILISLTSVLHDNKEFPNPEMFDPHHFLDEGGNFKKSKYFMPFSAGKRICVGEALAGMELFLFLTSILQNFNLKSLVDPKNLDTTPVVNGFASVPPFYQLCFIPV
UniProt P10635, whole entry: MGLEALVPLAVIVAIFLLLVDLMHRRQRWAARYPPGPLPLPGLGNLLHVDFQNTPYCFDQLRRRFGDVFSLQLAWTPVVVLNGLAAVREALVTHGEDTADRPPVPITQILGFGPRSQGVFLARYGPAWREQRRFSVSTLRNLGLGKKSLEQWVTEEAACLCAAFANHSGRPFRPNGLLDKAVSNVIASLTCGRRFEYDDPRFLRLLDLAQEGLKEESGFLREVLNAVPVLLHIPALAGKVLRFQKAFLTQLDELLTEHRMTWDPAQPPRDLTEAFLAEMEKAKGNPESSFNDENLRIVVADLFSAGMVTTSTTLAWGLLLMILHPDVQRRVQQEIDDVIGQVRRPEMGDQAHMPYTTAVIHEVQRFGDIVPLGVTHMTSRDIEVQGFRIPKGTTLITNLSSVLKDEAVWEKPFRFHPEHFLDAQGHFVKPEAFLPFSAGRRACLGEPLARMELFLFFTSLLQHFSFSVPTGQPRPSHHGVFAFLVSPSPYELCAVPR
UniProt P08684, whole entry: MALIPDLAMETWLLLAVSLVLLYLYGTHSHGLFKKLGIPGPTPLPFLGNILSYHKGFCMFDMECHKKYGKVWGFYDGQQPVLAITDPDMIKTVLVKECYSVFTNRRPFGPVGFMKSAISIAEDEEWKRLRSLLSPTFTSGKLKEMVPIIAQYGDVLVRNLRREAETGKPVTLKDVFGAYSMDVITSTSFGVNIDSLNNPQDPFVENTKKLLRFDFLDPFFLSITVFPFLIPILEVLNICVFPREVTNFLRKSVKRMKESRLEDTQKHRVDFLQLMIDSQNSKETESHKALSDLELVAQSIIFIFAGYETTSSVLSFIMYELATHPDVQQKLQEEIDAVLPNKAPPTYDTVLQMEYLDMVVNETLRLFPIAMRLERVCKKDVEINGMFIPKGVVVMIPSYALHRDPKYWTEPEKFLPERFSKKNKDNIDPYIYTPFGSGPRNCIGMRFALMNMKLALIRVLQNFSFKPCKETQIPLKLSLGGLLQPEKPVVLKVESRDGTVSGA

Columns and labels:
human CYP2C19 = human CYP2C19 (Homo sapiens, UniProt P33261); details: mean ± standard deviation from three experiments; for IC50: read-out: CYP2C19 IC50 (half-maximal inhibitory concentration)
human CYP1A2 = human CYP1A2 (Homo sapiens, UniProt P05177); details: mean ± standard deviation from three experiments
[1] = target: Photinus pyralis (firefly) luciferase (Photinus pyralis, UniProt P08659); assay: Luciferase counter-screen assay; assay type: biochemical; details: mean ± standard deviation from three experiments
human CYP2C9 = human CYP2C9 (Homo sapiens, UniProt P11712); details: mean ± standard deviation from three experiments; for IC50: read-out: CYP2C9 IC50 (half-maximal inhibitory concentration)
human CYP2D6 = human CYP2D6 (Homo sapiens, UniProt P10635); details: mean ± standard deviation from three experiments; for IC50: read-out: CYP2D6 IC50 (half-maximal inhibitory concentration)
CYP3A4 = CYP3A4 (Homo sapiens, UniProt P08684); details: mean ± standard deviation from three experiments; negative = inhibition, positive = activation

Row | SMILES | IC50 (human CYP2C19; Inactive = no activity call) [µM] | CYP1A2 IC50 (half-maximal inhibitory concentration) (human CYP1A2; Inactive = no activity call) | Luciferase IC50 (half-maximal inhibitory concentration) ([1]; Inactive = no activity call) | IC50 (human CYP2C9; Inactive = no activity call) [µM] | IC50 (human CYP2D6; Inactive = no activity call) [µM] | CYP2C19 Efficacy (in parenthesis) (human CYP2C19; negative = inhibition) [%] | IC50 (human CYP2C19; qHTS) [µM] | CYP1A2 IC50 (half-maximal inhibitory concentration) (human CYP1A2; qHTS) | Luciferase IC50 (half-maximal inhibitory concentration) [1] | CYP2C9 Efficacy (in parenthesis) (human CYP2C9; negative = inhibition) [%] | IC50 (human CYP2C9; qHTS) [µM] | CYP3A4 Efficacy (in parenthesis) (CYP3A4) [%] | CYP2D6 Efficacy (in parenthesis) (human CYP2D6; negative = inhibition) [%] | IC50 (human CYP2D6; qHTS) [µM]
1 | CCC(=O)N(c1ccccc1)C1(COC)CCN(CCn2nnn(CC)c2=O)CC1 | 93 | Inactive | Inactive | 50 | 44 | – | – | – | – | – | – | – | – | –
2 | CCC(=O)N(c1ccccc1)C1(COC)CCN(CCc2cccs2)CC1 | – | – | – | – | – | -98 ± 8 | 39.9 | Inactive | Inactive | -51 ± 11 | 71.5 | -74 ± 8 | -107 ± 3 | 1.47
